Data set [1] in a line: Photo-isomerization kinetics (trans/cis) followed by absorbance under illumination. The format is physicochemical. The note with it: for Ratio (t1/2 trans → cis / t1/2 cis → trans): fold faster back-switching to trans.
The next data set concerns the target T1, mouse Kv1.2 channels (Mus musculus, UniProt P63141).
T1 construct: expressed in transfected cells; host or cells: L929 (mouse fibroblast) cell line stably expressing mKv1.2, kept under G418 selection
Nature of the data set: Block of Kv1.2 K+ current, automated patch-clamp (SyncroPatch 384PE). Format: cell-based.

Chains of the proteins cited; added tags and fusions are not shown.
UniProt P63141, whole entry: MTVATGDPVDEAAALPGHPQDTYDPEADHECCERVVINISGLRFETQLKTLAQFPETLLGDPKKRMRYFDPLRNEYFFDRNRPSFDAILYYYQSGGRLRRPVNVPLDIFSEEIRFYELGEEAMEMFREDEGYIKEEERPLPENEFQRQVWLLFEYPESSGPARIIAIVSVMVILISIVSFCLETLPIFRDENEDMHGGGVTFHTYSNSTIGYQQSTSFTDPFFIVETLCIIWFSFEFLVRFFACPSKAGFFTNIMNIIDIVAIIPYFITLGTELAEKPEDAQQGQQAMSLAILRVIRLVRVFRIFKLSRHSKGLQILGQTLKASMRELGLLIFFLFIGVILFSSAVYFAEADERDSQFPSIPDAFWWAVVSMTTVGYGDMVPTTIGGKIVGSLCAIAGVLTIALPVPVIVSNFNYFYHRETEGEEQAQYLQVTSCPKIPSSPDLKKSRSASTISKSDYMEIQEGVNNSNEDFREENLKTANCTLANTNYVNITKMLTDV

On to `CSCC[C@@H]1NC(=O)[C@@H]2CSSC[C@H](NC(=O)[C@H](CO)NC(=O)[C@@H](NC(=O)[C@H](CC(N)=O)NC(=O)[C@@H](NC(=O)[C@H](Cc3ccccc3)NC(=O)[C@@H]3CCC(=O)N3)[C@@H](C)O)C(C)C)C(=O)N[C@@H]([C@@H](C)O)C(=O)N[C@@H](CCn3cc(CNC(=O)c4ccc(/N=N/c5ccc(C(=O)NCc6cn(CC[C@@H]7NC(=O)[C@H]([C@@H](C)O)NC(=O)[C@@H](NC(=O)[C@H](CO)NC(=O)[C@@H](NC(=O)[C@H](CC(N)=O)NC(=O)[C@@H](NC(=O)[C@H](Cc8ccccc8)NC(=O)[C@@H]8CCC(=O)N8)[C@@H](C)O)C(C)C)CSSC[C@@H]8NC(=O)[C@H](CCCCN)NC(=O)CNC(=O)[C@H](CCCNC(=N)N)NC(=O)[C@H](CO)NC(=O)[C@H]([C@@H](C)O)NC(=O)[C@H](CC(N)=O)NC(=O)[C@H](Cc9c[nH]cn9)NC(=O)[C@H](CC(C)C)NC(=O)[C@H](CCCNC(=N)N)NC(=O)[C@H](CCC(N)=O)NC(=O)[C@@H]9CSSC[C@@H](C(=O)N[C@@H](Cc%10ccc(O)cc%10)C(=O)N[C@@H](CO)C(=O)O)NC(=O)[C@H](CCCNC(=N)N)NC(=O)[C@H](CSSC[C@H](NC(=O)[C@H](CCC(=O)O)NC(=O)[C@H](CCCCN)NC(=O)[C@H](CO)NC7=O)C(=O)N[C@@H](Cc7c[nH]c%10ccccc7%10)C(=O)N[C@@H](CO)C(=O)N[C@@H](C(C)C)C(=O)N9)NC(=O)[C@H](CCCCN)NC(=O)[C@H](CCCCN)NC(=O)[C@H](CC(N)=O)NC(=O)[C@H](CCSC)NC8=O)nn6)cc5)cc4)nn3)C(=O)N[C@@H](CO)C(=O)N[C@@H](CCCCN)C(=O)N[C@@H](CCC(=O)O)C(=O)N[C@H]3CSSC[C@H](NC(=O)[C@H](CCCCN)NC(=O)[C@H](CCCCN)NC(=O)[C@H](CC(N)=O)NC1=O)C(=O)N[C@@H](CCCNC(=N)N)C(=O)N[C@H](C(=O)N[C@@H](Cc1ccc(O)cc1)C(=O)N[C@@H](CO)C(=O)O)CSSC[C@H](NC(=O)[C@H](C(C)C)NC(=O)[C@H](CO)NC(=O)[C@H](Cc1c[nH]c4ccccc14)NC3=O)C(=O)N[C@@H](CCC(N)=O)C(=O)N[C@@H](CCCNC(=N)N)C(=O)N[C@@H](CC(C)C)C(=O)N[C@@H](Cc1c[nH]cn1)C(=O)N[C@@H](CC(N)=O)C(=O)N[C@@H]([C@@H](C)O)C(=O)N[C@@H](CO)C(=O)N[C@@H](CCCNC(=N)N)C(=O)NCC(=O)N[C@@H](CCCCN)C(=O)N2` [ChTx‐Ah^9‐Az1‐Ah^9‐ChTx], for which the “Ratio (t1/2 trans → cis / t1/2 cis → trans)” value in data set [1] was determined as 5.0.

Turning to `CSCC[C@@H]1NC(=O)[C@@H]2CSSC[C@H](NC(=O)[C@H](CO)NC(=O)[C@@H](NC(=O)[C@H](CC(N)=O)NC(=O)[C@@H](NC(=O)[C@H](Cc3ccccc3)NC(=O)[C@@H]3CCC(=O)N3)[C@@H](C)O)C(C)C)C(=O)N[C@@H]([C@@H](C)O)C(=O)N[C@@H]([C@@H](C)O)C(=O)N[C@@H](CO)C(=O)N[C@@H](CCCCN)C(=O)N[C@@H](CCn3cc(CNC(=O)c4ccc(/N=N/c5ccc(C(=O)NCc6cn(CC[C@@H]7NC(=O)[C@H](CCCCN)NC(=O)[C@H](CO)NC(=O)[C@H]([C@@H](C)O)NC(=O)[C@H]([C@@H](C)O)NC(=O)[C@@H](NC(=O)[C@H](CO)NC(=O)[C@@H](NC(=O)[C@H](CC(N)=O)NC(=O)[C@@H](NC(=O)[C@H](Cc8ccccc8)NC(=O)[C@@H]8CCC(=O)N8)[C@@H](C)O)C(C)C)CSSC[C@@H]8NC(=O)[C@H](CCCCN)NC(=O)CNC(=O)[C@H](CCCNC(=N)N)NC(=O)[C@H](CO)NC(=O)[C@H]([C@@H](C)O)NC(=O)[C@H](CC(N)=O)NC(=O)[C@H](Cc9c[nH]cn9)NC(=O)[C@H](CC(C)C)NC(=O)[C@H](CCCNC(=N)N)NC(=O)[C@H](CCC(N)=O)NC(=O)[C@@H]9CSSC[C@@H](C(=O)N[C@@H](Cc%10ccc(O)cc%10)C(=O)N[C@@H](CO)C(=O)O)NC(=O)[C@H](CCCNC(=N)N)NC(=O)[C@H](CSSC[C@H](NC7=O)C(=O)N[C@@H](Cc7c[nH]c%10ccccc7%10)C(=O)N[C@@H](CO)C(=O)N[C@@H](C(C)C)C(=O)N9)NC(=O)[C@H](CCCCN)NC(=O)[C@H](CCCCN)NC(=O)[C@H](CC(N)=O)NC(=O)[C@H](CCSC)NC8=O)nn6)cc5)cc4)nn3)C(=O)N[C@H]3CSSC[C@H](NC(=O)[C@H](CCCCN)NC(=O)[C@H](CCCCN)NC(=O)[C@H](CC(N)=O)NC1=O)C(=O)N[C@@H](CCCNC(=N)N)C(=O)N[C@H](C(=O)N[C@@H](Cc1ccc(O)cc1)C(=O)N[C@@H](CO)C(=O)O)CSSC[C@H](NC(=O)[C@H](C(C)C)NC(=O)[C@H](CO)NC(=O)[C@H](Cc1c[nH]c4ccccc14)NC3=O)C(=O)N[C@@H](CCC(N)=O)C(=O)N[C@@H](CCCNC(=N)N)C(=O)N[C@@H](CC(C)C)C(=O)N[C@@H](Cc1c[nH]cn1)C(=O)N[C@@H](CC(N)=O)C(=O)N[C@@H]([C@@H](C)O)C(=O)N[C@@H](CO)C(=O)N[C@@H](CCCNC(=N)N)C(=O)NCC(=O)N[C@@H](CCCCN)C(=O)N2` [ChTx‐Ah^12‐Az1‐Ah^12‐ChTx], the “Ratio (t1/2 trans → cis / t1/2 cis → trans)” value in data set [1] is listed as 2.3.

On to `CSCC[C@@H]1NC(=O)[C@@H]2CSSC[C@H](NC(=O)[C@H](CO)NC(=O)[C@@H](NC(=O)[C@H](CC(N)=O)NC(=O)[C@@H](NC(=O)[C@H](Cc3ccccc3)NC(=O)[C@@H]3CCC(=O)N3)[C@@H](C)O)C(C)C)C(=O)N[C@@H]([C@@H](C)O)C(=O)N[C@@H]([C@@H](C)O)C(=O)N[C@@H](CO)C(=O)N[C@@H](CCCCN)C(=O)N[C@@H](CCC(=O)O)C(=O)N[C@H]3CSSC[C@H](NC(=O)[C@H](CCCCN)NC(=O)[C@H](CCCCN)NC(=O)[C@H](CC(N)=O)NC1=O)C(=O)N[C@@H](CCCNC(=N)N)C(=O)N[C@H](C(=O)N[C@@H](Cc1ccc(O)cc1)C(=O)N[C@@H](CO)C(=O)O)CSSC[C@H](NC(=O)[C@H](C(C)C)NC(=O)[C@H](CO)NC(=O)[C@H](Cc1c[nH]c4ccccc14)NC3=O)C(=O)N[C@@H](CCC(N)=O)C(=O)N[C@@H](CCn1cc(CNC(=O)c3ccc(/N=N/c4ccc(C(=O)NCc5cn(CC[C@@H]6NC(=O)[C@H](CCC(N)=O)NC(=O)[C@@H]7CSSC[C@@H](C(=O)N[C@@H](Cc8ccc(O)cc8)C(=O)N[C@@H](CO)C(=O)O)NC(=O)[C@H](CCCNC(=N)N)NC(=O)[C@@H]8CSSC[C@H](NC(=O)[C@H](CCC(=O)O)NC(=O)[C@H](CCCCN)NC(=O)[C@H](CO)NC(=O)[C@H]([C@@H](C)O)NC(=O)[C@H]([C@@H](C)O)NC(=O)[C@@H](NC(=O)[C@H](CO)NC(=O)[C@@H](NC(=O)[C@H](CC(N)=O)NC(=O)[C@@H](NC(=O)[C@H](Cc9ccccc9)NC(=O)[C@@H]9CCC(=O)N9)[C@@H](C)O)C(C)C)CSSC[C@H](NC(=O)[C@H](CCCCN)NC(=O)CNC(=O)[C@H](CCCNC(=N)N)NC(=O)[C@H](CO)NC(=O)[C@H]([C@@H](C)O)NC(=O)[C@H](CC(N)=O)NC(=O)[C@H](Cc9c[nH]cn9)NC(=O)[C@H](CC(C)C)NC6=O)C(=O)N[C@@H](CCSC)C(=O)N[C@@H](CC(N)=O)C(=O)N[C@@H](CCCCN)C(=O)N[C@@H](CCCCN)C(=O)N8)C(=O)N[C@@H](Cc6c[nH]c8ccccc68)C(=O)N[C@@H](CO)C(=O)N[C@@H](C(C)C)C(=O)N7)nn5)cc4)cc3)nn1)C(=O)N[C@@H](CC(C)C)C(=O)N[C@@H](Cc1c[nH]cn1)C(=O)N[C@@H](CC(N)=O)C(=O)N[C@@H]([C@@H](C)O)C(=O)N[C@@H](CO)C(=O)N[C@@H](CCCNC(=N)N)C(=O)NCC(=O)N[C@@H](CCCCN)C(=O)N2` [ChTx‐Ah^19‐Az1‐Ah^19‐ChTx], for which the “Ratio (t1/2 trans → cis / t1/2 cis → trans)” value in data set [1] is reported as 4.3.

With `C#CCCC(=O)Nc1ccc(/N=N/c2ccc(NC(=O)CCc3cn(CC[C@@H]4NC(=O)[C@@H]5CSSC[C@@H]6NC(=O)[C@H](CCCCN)NC(=O)[C@H](CCCCN)NC(=O)[C@H](CC(N)=O)NC(=O)[C@H](CCSC)NC(=O)[C@H](CSSC[C@H](NC(=O)[C@H](CO)NC(=O)[C@@H](NC(=O)[C@H](CC(N)=O)NC(=O)[C@@H](NC(=O)[C@H](Cc7ccccc7)NC(=O)[C@@H]7CCC(=O)N7)[C@@H](C)O)C(C)C)C(=O)N[C@@H]([C@@H](C)O)C(=O)N[C@@H]([C@@H](C)O)C(=O)N[C@@H](CO)C(=O)N[C@@H](CCCCN)C(=O)N[C@@H](CCC(=O)O)C(=O)N5)NC(=O)[C@H](CCCCN)NC(=O)CNC(=O)[C@H](CCCNC(=N)N)NC(=O)[C@H](CO)NC(=O)[C@H]([C@@H](C)O)NC(=O)[C@H](CC(N)=O)NC(=O)[C@H](Cc5c[nH]cn5)NC(=O)[C@H](CC(C)C)NC(=O)[C@H](CCCNC(=N)N)NC(=O)[C@H](CCC(N)=O)NC(=O)[C@H](CSSC[C@@H](C(=O)N[C@@H](Cc5ccc(O)cc5)C(=O)N[C@@H](CO)C(=O)O)NC(=O)[C@H](CCCNC(=N)N)NC6=O)NC(=O)[C@H](C(C)C)NC(=O)[C@H](CO)NC4=O)nn3)cc2)cc1` [ChTx‐Ah^14‐Az2], the “Time to peak of the increase in Kv1.2 current block on illumination at 385 nm” value at mouse Kv1.2 channels (10 nM dark-adapted peptide, L929-mKv1.2 cells, n = 10) is reported as ≤ 20 s. Moreover, on mouse Kv1.2 channels (10 nM peptide, L929-mKv1.2 cells, n = 10), the “Time to restoration of initial Kv1.2 current level on back-switching at 490 nm” value was “≈ 50 s”. For the same compound, the “Hill slope nH, cis” value at mouse Kv1.2 channels (Az2 conjugate, 385 nm, n = 40) is given as 0.6. The “Hill slope nH, trans” value at mouse Kv1.2 channels (Az2 conjugate, 490 nm, n = 41) is 0.9. The “Gain of potency of cis over trans configuration” value on mouse Kv1.2 channels (ratio of trans IC50 to cis IC50, Kv1.2) amounted to 4.3 fold. For the same compound, the “Loss of potency versus trans ChTx-Ah14-Az1 (fold less potent)” value at mouse Kv1.2 channels (trans configuration at 490 nm, ratio of IC50 values) was 1.5 fold.

In the case of `C#CCNC(=O)c1ccc(/N=N/c2ccc(C(=O)NCc3cn(CC[C@@H]4NC(=O)[C@H](CCC(N)=O)NC(=O)[C@@H]5CSSC[C@@H](C(=O)N[C@@H](Cc6ccc(O)cc6)C(=O)N[C@@H](CO)C(=O)O)NC(=O)[C@H](CCCNC(=N)N)NC(=O)[C@@H]6CSSC[C@H](NC(=O)[C@H](CCC(=O)O)NC(=O)[C@H](CCCCN)NC(=O)[C@H](CO)NC(=O)[C@H]([C@@H](C)O)NC(=O)[C@H]([C@@H](C)O)NC(=O)[C@@H](NC(=O)[C@H](CO)NC(=O)[C@@H](NC(=O)[C@H](CC(N)=O)NC(=O)[C@@H](NC(=O)[C@H](Cc7ccccc7)NC(=O)[C@@H]7CCC(=O)N7)[C@@H](C)O)C(C)C)CSSC[C@H](NC(=O)[C@H](CCCCN)NC(=O)CNC(=O)[C@H](CCCNC(=N)N)NC(=O)[C@H](CO)NC(=O)[C@H]([C@@H](C)O)NC(=O)[C@H](CC(N)=O)NC(=O)[C@H](Cc7c[nH]cn7)NC(=O)[C@H](CC(C)C)NC4=O)C(=O)N[C@@H](CCSC)C(=O)N[C@@H](CC(N)=O)C(=O)N[C@@H](CCCCN)C(=O)N[C@@H](CCCCN)C(=O)N6)C(=O)N[C@@H](Cc4c[nH]c6ccccc46)C(=O)N[C@@H](CO)C(=O)N[C@@H](C(C)C)C(=O)N5)nn3)cc2)cc1` [ChTx‐Ah^19‐Az1], the “Ratio (t1/2 trans → cis / t1/2 cis → trans)” value in data set [1] is on record as 15.3. For the same compound, the “t1/2 cis → trans [95% CI]” value in data set [1] (half isomerization time, illumination 435 nm, 9.5 mW cm−2, conjugates dissolved in water, absorbance) is 2.1 s.

These data come from PMC12051786, “Photoisomerization of Azobenzene‐Extended Charybdotoxin for the Optical Control of Kv1.2 Potassium Channel Activity” (Angewandte Chemie (International Ed. in English), 2025).
